Values of other authors as cited in US20140256765A1, “TRANSMUCOSAL DRUG DELIVERY SYSTEM” (priority 2013, published 2014).
Some compounds may have been tested in ways that are not shown here.

Settings: current transmucosal therapy (lollipop)

CCC(=O)N(c1ccccc1)C1CCN(CCc2ccccc2)CC1
time to reach maximum plasma concentrations: over 20 minutes
